{"source": "patent US4933332A", "about": "“11-desoxy-17-α-hydroxycorticosterone derivatives” (priority 1988, dated 1990)", "key": {"Hepatoma G-60": {"tested_on": "Hepatoma G-60", "assay": "Antitumor effect on grafted hepatoma G-60", "type": "in vivo, mice and rats", "conditions": "days 6-10, effective dose range per compound, 24 h × 5"}, "S-37": {"tested_on": "S-37", "assay": "Antitumor effect on grafted solid tumor S-37", "type": "in vivo, mice and rats", "conditions": "days 2-6, effective dose range per compound, 24 h × 5"}, "MOPG-406": {"tested_on": "MOPG-406", "assay": "Antitumor effect on grafted hemoblastoses (MOPC-406), extension of lifespan", "type": "in vivo, mice and rats", "conditions": "days 2-6 after grafting, effective dose range per compound, 24 h × 5"}, "[1]": {"tested_on": "Alveolar mammary cancer RMK-1", "assay": "Antitumor effect on grafted alveolar mammary cancer RMK-1", "type": "in vivo, mice and rats", "conditions": "days 3-7, effective dose range per compound, 24 h × 5, \"+\" = stimulation of tumor growth"}, "Ca-755": {"tested_on": "Ca-755", "assay": "Antitumor effect on grafted solid tumor Ca-755", "type": "in vivo, mice and rats", "conditions": "days 2-6, effective dose range per compound, 24 h × 5, \"+\" = stimulation of tumor growth"}, "L 1210": {"tested_on": "L 1210", "assay": "Antitumor effect on grafted hemoblastoses (L 1210), extension of lifespan", "type": "in vivo, mice and rats", "conditions": "days 2-6 after grafting, effective dose range per compound, 24 h × 5"}, "[2]": {"tested_on": "Viral leukosis Mazurenko LMC-1", "assay": "Antitumor effect on grafted hemoblastoses (LMC-1), extension of lifespan", "type": "in vivo, mice and rats", "conditions": "days 2-6 after grafting, effective dose range per compound, 24 h × 5"}, "P-388": {"tested_on": "P-388", "assay": "Antitumor effect on grafted hemoblastoses (P-388), extension of lifespan", "type": "in vivo, mice and rats", "conditions": "days 2-6 after grafting, effective dose range per compound, 24 h × 5"}, "Hepatoma G-61": {"tested_on": "Hepatoma G-61", "assay": "Antitumor effect on grafted hepatoma G-61", "type": "in vivo, mice and rats", "conditions": "days 7-11, effective dose range per compound, 24 h × 5"}, "La": {"tested_on": "La", "conditions": "days 1-5 after grafting, effective dose range per compound, 24 h × 5"}, "S-180": {"tested_on": "S-180", "assay": "Antitumor effect on grafted solid tumor S-180", "type": "in vivo, mice and rats", "conditions": "days 2-6, effective dose range per compound, 24 h × 5, \"+\" = stimulation of tumor growth"}}, "data": [{"smiles": "O=C(O)Cc1ccc(N(CCCl)CCCl)cc1", "values": [{"measurement": "Maximum tumor growth inhibition", "setting": "Hepatoma G-60", "value": 86, "unit": "%"}, {"measurement": "Maximum tumor growth inhibition", "setting": "S-37", "value": 94, "unit": "%"}, {"measurement": "Extension of the lifespan of the animals (ELA)", "setting": "MOPG-406", "value": 41, "unit": "%"}, {"measurement": "Maximum tumor growth inhibition", "setting": "[1]", "value": 27, "unit": "%"}, {"measurement": "Maximum tumor growth inhibition", "setting": "Ca-755", "value": 87, "unit": "%"}, {"measurement": "Extension of the lifespan of the animals (ELA)", "setting": "L 1210", "value": 15, "unit": "%"}, {"measurement": "Extension of the lifespan of the animals (ELA)", "setting": "[2]", "value": 9, "unit": "%"}, {"measurement": "Extension of the lifespan of the animals (ELA)", "setting": "P-388", "value": 87, "unit": "%"}, {"measurement": "Maximum tumor growth inhibition", "setting": "Hepatoma G-61", "value": 53, "unit": "%"}, {"measurement": "Extension of the lifespan of the animals (ELA)", "setting": "La", "value": 46, "unit": "%"}, {"measurement": "Maximum tumor growth inhibition", "setting": "S-180", "value": 56, "unit": "%"}]}]}
